Earlier results in patent publication EP3654984B1, “TOPICAL TREATMENT FOR PREVENTING AND MITIGATING SKIN CYTOTOXICITY DUE TO THERAPY WITH TYROSINE KINASE INHIBITORS” (EUCARE S.R.L., priority 2017, dated 2019).
Marks after values point to notes of the source that are not given here.

System: patients with EGFR mutation-positive non-small-cell lung cancer
Conditions: LUX-Lung 7, cited from earlier work
[1] = AST, aspartate aminotransferase
[2] = afatinib 40 mg/day or gefitinib 250 mg/day
[3] = of the 160 (afatinib) / 159 (gefitinib) patients treated
[4] = term used for a group of adverse events

COc1cc2ncnc(Nc3ccc(F)c(Cl)c3)c2cc1OCCCN1CCOCC1 [Gefitinib, gefitinib]
ALT increased, All (ALT, alanine aminotransferase): 23.9% | ALT increased, Grade 3 (ALT, alanine aminotransferase): 7.5‡ % | AST increased, All [1]: 20.8% | AST increased, Grade 3 [1]: 2.5% | Diarrhea, All [2]: 61.0% | Diarrhea, Grade 3 [2]: 1.3% | Alopecia, All: 15.1% | Itching, All: 22.6% | Nausea, All: 13.8% | Reduction of appetite, All: 11.9% | Vomiting, All: 3.8% | Vomiting, Grade 3: 0.6% | Xerosis, All: 37.1% | grade 3 or 4 diarrhea: 1% | grade 3 or 4 rash or acne: 3% | grade 3 or 4 diarrhea, number of patients [3]: 2 patients | grade 3 or 4 rash or acne, number of patients [3]: 5 patients | Asthenia*, All [4]: 14.5% | Paronychia*, All [4]: 17.0% | Paronychia*, Grade 3 [4]: 0.6% | Rash/acne*, All [4]: 81.1% | Rash/acne*, Grade 3 [4]: 3.1% | Stomatitis*, All [4]: 23.9%
